Values quoted from earlier work, collected in paper PMC4791286, “Puquitinib mesylate, an inhibitor of phosphatidylinositol 3-kinase p110δ, for treating relapsed or refractory non-Hodgkin's lymphoma” (Oncotarget, 2015).
Counter-ions that a name gives are not always drawn.

Test system: advanced solid tumors
Conditions: twice-daily dosing at 25 mg, 37.5 mg after the meal, 28-day cycles; ref unpublished information, personal communication with Wei Mao on January 1, 2013; cited from earlier work

## c1cnc2ccc(Nc3nc(NC4CC4)c4nc[nH]c4n3)cc2c1 [XC-302, Puquitinib Mesylate]
  DLT greater than Grade 2: not observed
